This test addresses human TYK2 (JH2domain-pseudokinase) (Homo sapiens (Human), UniProt P29597). The test can be described thus: TYK2 JH2 Domain Binding Assay (KINOMEscan). The following applies: 11-point 3-fold dilution, top concentration 30,000 nM, duplicate; read-out: hTYK2_JH2_Binding (Kd; nM).

By UniProt entry, the sequences of proteins in these tests, tags left out. Residues count along the entry.
UniProt P29597, 556-888: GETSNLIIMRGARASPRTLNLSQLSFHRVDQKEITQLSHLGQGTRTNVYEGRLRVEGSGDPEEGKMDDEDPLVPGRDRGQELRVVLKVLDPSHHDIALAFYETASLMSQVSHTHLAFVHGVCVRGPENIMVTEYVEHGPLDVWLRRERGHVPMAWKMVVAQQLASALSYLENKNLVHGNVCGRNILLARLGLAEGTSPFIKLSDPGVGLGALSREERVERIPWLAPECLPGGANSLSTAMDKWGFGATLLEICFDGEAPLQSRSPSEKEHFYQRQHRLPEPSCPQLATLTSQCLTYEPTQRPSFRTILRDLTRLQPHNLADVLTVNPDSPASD

A word on the Kd: it is the concentration at which binding is half-saturated. Consider `CNc1cc(Nc2cccn(C3CC(F)(F)C3)c2=O)nc2c(C(=O)N[C@@H]3CCC[C@@H](O)C3)cnn12` [Compound I-62, 5-((1-(3,3-Difluorocyclobutyl)-2-oxo-1,2-dihydropyridin-3-yl)amino)-N-((1R,3R)-3-hydroxycyclohexyl)-7-(methylamino)pyrazolo[1,5-a]pyrimidine-3-carboxamide], for which the Kd is less than 0.2 nM.

Values taken from patent publication US11414431B2, “Substituted pyrazolo[1,5-a]pyrimidines as TYK2 inhibitors” (Nimbus Lakshmi, Inc., priority 2018, dated 2022).
